## logP (octanol/water) values, as collected for the OPERA models

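These are experimental values that the OPERA curators gathered from public databases to train and test their QSAR models. A listed value is a point estimate from one report or more. Method, purity and exact conditions of the single measurements are not given. A value may pool stereoisomers or salt forms, and the file does not say which form was measured. Some entries may be limits or estimates that an upstream database listed as plain numbers.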

The octanol-water partition coefficient is given as log10; larger values mean a more lipophilic compound. Cells with "n/a" have no entry in this list.

SMILES,name,logP (octanol/water)
CC(CCc1ccc(O)cc1)NCCc1ccc(O)c(O)c1 (racemic),n/a,3.6
O=C(O)c1cc(Cn2nnc(C(F)(F)F)n2)nn1-c1ncccc1Cl,n/a,0.021
O=C(CCc1ccc(O)cc1)c1c(O)cc(O)cc1O[C@@H]1O[C@H](CO)[C@@H](O)[C@H](O)[C@H]1O,Phlorizin,0.95
CS(=O)(=O)Oc1ccc(Nc2ccc(O)c3c2C(=O)c2ccccc2C3=O)cc1,n/a,2.49
C=CCOC(=O)C(=C)C,Allyl methacrylate,2.15
O=C(O)CC(=O)CC(=O)O,3-Ketoglutaric acid,0.316
CCCCCc1ccc(O)c2c1OC(C)(C)C1CCC(C)=CC21 (configuration not stated),n/a,6.97
CCOc1ccc(NC(=O)c2cc3ccccc3cc2O)cc1,"2-Naphthalenecarboxamide, N-(4-ethoxyphenyl)-3-hydroxy-",2.8
C=Cc1ccc(C(C)(C)C)cc1,4-tert-Butylstyrene,4.73
CN(C)c1ccc(/N=N/c2n(C)cc[n+]2C)cc1.[Cl-],n/a,-1.97
CCCCCCN(CCCCCC)CCCCCC,"N,N-Dihexyl-1-hexanamine",4.47
O/N=C1\CCCC2=C1C1CCC2C1=C(Cl)Cl (stereo partly drawn),n/a,4.1
Cc1ccc(C(=O)OC(C)C)cc1N=Nc1c(O)c(C(=O)Nc2cc(Cl)c(NC(=O)c3cc4ccccc4c(N=Nc4cc(C(=O)OC(C)C)ccc4C)c3O)cc2Cl)cc2ccccc12,n/a,-0.57
N#Cc1ccc2c(c1)COC2=O,"1-Oxo-1,3-dihydro-2-benzofuran-5-carbonitrile",0.136
COc1n[nH]c(=O)n1C,"3H-1,2,4-Triazol-3-one, 2,4-dihydro-5-methoxy-4-methyl-",-0.6
CCCCC[C@@H]1C(=O)CC[C@H]1C(=O)OC,"Methyl (1R,2S)-3-oxo-2-pentylcyclopentanecarboxylate",2.8
Cc1ccc(C(N)=O)cc1N,3-Amino-4-methylbenzamide,-0.2
COC(=O)CCC(=O)CN,Methyl aminolevulinate,-1.2
Nc1ccc(Cc2ccc(N)c(Cl)c2Cl)c(Cl)c1Cl,"Benzenamine, 4,4'-methylenebis(2,3-dichloro-",5.39
CC(CC(=O)[O-])CC(C)(C)C.[K+] (configuration not stated),"Hexanoic acid, 3,5,5-trimethyl-, potassium salt (1:1)",-0.47
CCCCCCCCCCCC(=O)N[C@@H](CCC(=O)NCCCC)C(=O)NCCCC,n/a,5.25
CC[N+](C)(CC)CC,"N,N-diethyl-N-methylethanaminium",-2.13
CC(=O)c1ccc2ccccc2c1,2'-Acetonaphthone,2.678
N[C@@H](Cn1ccc(=O)c(O)c1)C(=O)O,(S)-alpha-Amino-3-hydroxy-4-oxo-1(4H)-pyridylpropionic acid,-2.5
OC(c1ccccc1)c1nc2ccccc2[nH]1 (configuration not stated),2-Hydroxybenzylbenzimidazole,1.89
CCCCCCCCCc1cc2ccccc2c(S(=O)(=O)[O-])c1CCCCCCCCC.CCCCCCCCCc1cc2ccccc2c(S(=O)(=O)[O-])c1CCCCCCCCC.[Mg+2],"Naphthalenesulfonic acid, dinonyl-, magnesium salt (2:1)",4.24
OC(CCN1CCCCC1)(c1ccccc1)C1CCCC1 (configuration not stated),Cycrimine,4
C=CCCC(=O)CC1CC2CCC1C2 (configuration not stated),n/a,3.89
Nc1cnn(CCO)c1N.O=S(=O)(O)O,"4,5-Diamino-1-(2-hydroxyethyl)pyrazole sulfate",-1.75
CCCCCCC(CCCC)COS(=O)(=O)[O-].[Na+] (configuration not stated),Sodium 2-butyloctyl sulfate,2.077
N#Cc1ccc(Cl)c(Cl)c1,"3,4-Dichlorobenzonitrile",2.8
COc1ccc(CC(C)C=O)cc1 (configuration not stated),3-(4-Methoxyphenyl)-2-methylpropanal,2.4
CN(C)C[C@H](O)[C@@H](O)[C@H](O)[C@H](O)CO (stereo in doubt),"N,N-Dimethyl-D-glucamine",-1.8
CC(C=O)=Cc1ccccc1,2-Methylcinnamic aldehyde,2.471
CC(CCC(=O)O)C(=O)O (configuration not stated),2-Methylpentanedioic acid,0.177

The first 6 entries again:

SMILES	name	logP (octanol/water)
CC(CCc1ccc(O)cc1)NCCc1ccc(O)c(O)c1 (racemic)	n/a	3.6
O=C(O)c1cc(Cn2nnc(C(F)(F)F)n2)nn1-c1ncccc1Cl	n/a	0.021
O=C(CCc1ccc(O)cc1)c1c(O)cc(O)cc1O[C@@H]1O[C@H](CO)[C@@H](O)[C@H](O)[C@H]1O	Phlorizin	0.95
CS(=O)(=O)Oc1ccc(Nc2ccc(O)c3c2C(=O)c2ccccc2C3=O)cc1	n/a	2.49
C=CCOC(=O)C(=C)C	Allyl methacrylate	2.15
O=C(O)CC(=O)CC(=O)O	3-Ketoglutaric acid	0.316

Values as listed in the OPERA 2.9 repository of K. Mansouri.